Data from ChEMBL document CHEMBL2401624, “Synthesis and biological evaluation of novel substituted pyrrolo[1,2-a]quinoxaline derivatives as inhibitors of the human protein kinase CK2” (Eur J Med Chem, 2013).

The chains behind the UniProt entries cited, without tags or fusion partners.
UniProt P19784, whole entry: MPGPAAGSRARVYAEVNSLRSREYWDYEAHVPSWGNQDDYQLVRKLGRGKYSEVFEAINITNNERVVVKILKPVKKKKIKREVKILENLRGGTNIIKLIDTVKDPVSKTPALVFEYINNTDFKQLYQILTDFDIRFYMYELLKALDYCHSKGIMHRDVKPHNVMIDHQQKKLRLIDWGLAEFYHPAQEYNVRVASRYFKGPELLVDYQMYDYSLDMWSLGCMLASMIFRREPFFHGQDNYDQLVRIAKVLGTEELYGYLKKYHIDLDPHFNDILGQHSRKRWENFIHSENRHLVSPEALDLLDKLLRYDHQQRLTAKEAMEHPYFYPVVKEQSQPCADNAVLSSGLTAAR
UniProt P67870, whole entry: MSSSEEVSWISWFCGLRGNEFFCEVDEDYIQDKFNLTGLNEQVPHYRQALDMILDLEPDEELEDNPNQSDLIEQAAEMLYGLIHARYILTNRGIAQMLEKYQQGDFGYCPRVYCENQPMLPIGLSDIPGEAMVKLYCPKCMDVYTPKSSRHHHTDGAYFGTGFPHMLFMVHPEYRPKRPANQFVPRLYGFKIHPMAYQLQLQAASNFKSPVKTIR
UniProt P68400, whole entry: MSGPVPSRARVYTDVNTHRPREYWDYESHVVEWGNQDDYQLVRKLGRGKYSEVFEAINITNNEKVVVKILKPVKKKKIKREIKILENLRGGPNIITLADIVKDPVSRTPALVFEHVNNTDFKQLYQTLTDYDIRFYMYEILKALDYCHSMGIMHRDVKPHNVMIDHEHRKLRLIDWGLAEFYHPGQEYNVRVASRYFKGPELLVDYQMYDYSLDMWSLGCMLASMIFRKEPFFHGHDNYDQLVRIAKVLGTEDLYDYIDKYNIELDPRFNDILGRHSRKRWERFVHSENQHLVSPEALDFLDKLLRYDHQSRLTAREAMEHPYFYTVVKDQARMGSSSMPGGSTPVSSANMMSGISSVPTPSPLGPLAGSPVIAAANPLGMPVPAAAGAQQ

Target: Casein kinase II (Homo sapiens, UniProt P19784+P67870+P68400)
Assay: Inhibition of human recombinant CK2 expressed in Escherichia coli BL21(DE3) using RRRDDDSDDD as substrate after 15 mins by capillary electrophoretic analysis

With `Cc1cc(O)c2c(c1)C(=O)c1cc(O)cc(O)c1C2=O` [EMODIN] the IC50 was 580 nM.
